We go through 1 compound from article PMC11726670, “Impact of Linker Composition on VHL PROTAC Cell Permeability” (Journal of Medicinal Chemistry, 2024).

Chains of the proteins cited; added tags and fusions are not shown.
UniProt P40337, whole entry: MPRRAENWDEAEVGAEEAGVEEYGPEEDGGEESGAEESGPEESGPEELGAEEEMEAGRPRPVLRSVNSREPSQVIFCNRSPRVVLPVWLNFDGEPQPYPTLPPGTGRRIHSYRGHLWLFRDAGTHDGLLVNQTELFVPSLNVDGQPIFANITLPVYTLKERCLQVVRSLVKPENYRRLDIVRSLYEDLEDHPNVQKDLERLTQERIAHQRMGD

One assay concerns the target VHL (Homo sapiens, UniProt P40337). Description: cell-based VHL binding assay (NanoBRET, live mode). Background: BRET reads energy transfer from a luciferase to a nearby fluorophore.
Another assay deals with VHL (VBC complex) (Homo sapiens, UniProt P40337). Conditions: read-out: VHL (in vitro) IC50; biochemical assay; mean ± SEM, three repeats.

The structures appear in SMILES notation. Like-named read-outs stand apart in the source and are kept apart here.

By IC50 is commonly meant the concentration that inhibits the measured activity by half. Turning to `Cc1ncsc1-c1ccc(CNC(=O)[C@@H]2C[C@@H](O)CN2C(=O)[C@@H](NC(=O)COCCOCCNC(=O)COc2cnc3c(C4CCN(C(=O)c5ccc(OC(F)(F)F)cc5)CC4)ncnc3c2)C(C)(C)C)cc1` [PROTAC 9], the IC50 at VHL (live cells overexpressing NanoLuc-VHL, mean ± SEM, six repeats, read-out: VHL (in cellulo) IC50) turned out to be 7.52 ± 0.77 µM; on VHL (supplement, N = 6, read-out: VHL (cell), IC50 mean), 7.52 µM; on VHL (VBC complex), 0.313 ± 0.0033 µM.
